In US6620839B2, “1,3-disubstituted and 1,3,3-trisubstituted pyrrolidines as histamine-3 receptor ligands and their therapeutic applications” (Abbott Laboratories, priority 2000, dated 2003) one finds Ki data, which are given here for one compound.

By UniProt entry, the sequences of proteins in these tests, tags left out. Where a name states a change or a piece, a line headed by the entry shows the natural chain unless it says otherwise.
UniProt Q9QYN8: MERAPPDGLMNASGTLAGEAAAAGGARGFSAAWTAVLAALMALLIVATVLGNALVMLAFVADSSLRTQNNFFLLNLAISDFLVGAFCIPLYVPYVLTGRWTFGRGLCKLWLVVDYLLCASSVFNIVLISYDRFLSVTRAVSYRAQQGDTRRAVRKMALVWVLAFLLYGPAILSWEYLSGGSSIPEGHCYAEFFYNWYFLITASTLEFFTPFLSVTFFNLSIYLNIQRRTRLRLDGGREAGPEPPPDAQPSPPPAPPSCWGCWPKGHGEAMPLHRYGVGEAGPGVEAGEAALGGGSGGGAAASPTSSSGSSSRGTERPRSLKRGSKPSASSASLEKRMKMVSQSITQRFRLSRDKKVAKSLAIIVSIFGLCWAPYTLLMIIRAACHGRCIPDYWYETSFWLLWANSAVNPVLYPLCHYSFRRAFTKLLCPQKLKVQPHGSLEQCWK

pKi: −log10 of the molar value.

The target of this assay is T1, histamine-3 receptor (Rattus norvegicus, UniProt Q9QYN8).
T1 construct: from tissue; host or cells: male Sprague-Dawley rat brain cortex membranes
Nature of the assay: Histamine-3 receptor binding, (3H)-N-α-methylhistamine displacement in rat cortical membranes. As to conditions: male Sprague-Dawley rat brain cortical membranes; (3H)-N-α-methylhistamine ~0.6 nM; 30 minutes at 25° C.; Cheng-Prusoff. As for the experimental part: Briefly, male Sprague-Dawley rat brain cortices were homogenized (1 g tissue/10 mL buffer) in 50 mM Tris-HCl/5 mM EDTA containing protease inhibitor cocktail (Calbiochem) using a polytron set at 20,500 rpm. Homogenates were centrifuged for 20 minutes at 40,000×g. The supernatant was decanted, and pellets were weighed. The pellet was resuspended by polytron homogenization in 40 mL 50 mM Tris-HCl/5 mM EDTA with protease inhibitors and centrifuged for 20 minutes at 40,000×g. […] Test compounds were dissolved in DMSO to provide 20 mM solution, serially diluted and then added to the incubation mixtures prior to initiating the incubation assay by addition of the membranes. Thioperamide (3 μM) was used to determine nonspecific binding. Binding incubations were conducted for 30 minutes at 25° C. and terminated by addition of 2 mL of ice cold 50 mM Tris-HCl (pH 7.7) and filtration through 0.3% polyethylenimine-soaked Unifilter plates (Packard). These filters were washed 4 additional times with 2 mL of ice-cold 50 mM Tris-HCl and dried for 1 hour. Radioactivity was determined using liquid scintillation counting techniques. Results were analyzed by Hill transformation and Ki values were determined using the Cheng-Prusoff equation.

As to `O=C(c1ccc(OCCCN2CC[C@@H](NS(=O)(=O)c3ccccc3Cl)C2)cc1)C1CC1` [Example 69, 2-chloro-N-((3R)-1-{3-[4-(cyclopropylcarbonyl)phenoxy]propyl}pyrrolidinyl)benzenesulfonamide], the pKi is 8.43.
